Assay results from patent publication US20080171346A1.
Several values for one entry are separate records, joined by “and”; a condition that tells them apart may be missing. Identical values can stand only once.

Protein sequences, listed by entry. Tags and fused reporters are not part of them.
UniProt P01870, whole entry: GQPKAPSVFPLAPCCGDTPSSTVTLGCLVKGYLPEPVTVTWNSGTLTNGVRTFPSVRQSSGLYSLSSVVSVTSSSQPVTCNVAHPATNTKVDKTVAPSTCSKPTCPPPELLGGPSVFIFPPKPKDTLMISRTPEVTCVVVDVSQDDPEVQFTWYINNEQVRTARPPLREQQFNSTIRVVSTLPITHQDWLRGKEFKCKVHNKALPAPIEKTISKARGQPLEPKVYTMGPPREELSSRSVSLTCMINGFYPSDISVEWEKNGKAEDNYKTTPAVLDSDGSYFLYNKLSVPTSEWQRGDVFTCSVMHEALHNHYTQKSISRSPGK

What was measured:
[1] = target: Rabbit IgG (rabbit) (UniProt P01870); test: QCM, protein A added to rabbit IgG held on MUA/scFv-RG3
[2] = target: Rabbit IgG (rabbit) (UniProt P01870); test: QCM, untreated S. aureus on MUA/scFv-RG3/IgG sensor (Bar B)
[3] = target: Rabbit IgG (rabbit) (UniProt P01870); test: QCM, acid treated S. aureus on MUA/scFv-RG3/IgG sensor (Bar A)
[4] = target: Rabbit IgG (rabbit) (UniProt P01870); test: QCM, MUA/scFv-RG3/IgG sensor, untreated against acid treated bacteria
[5] = target: Rabbit IgG (rabbit) (UniProt P01870); test: QCM, acid treated S. aureus on directly immobilised, random orientated rabbit IgG surface (Bar D)

Substance	fold increase of signal over randomly orientated rabbit IgG surface and protein A/IgG surface [1] [fold]	frequency change (signal response) [1] [Hz]	frequency change [2] [Hz]	frequency change [3]	fold signal reduction against acid treated Staphylococcus aureus [4] [times]	frequency change [5] [Hz]
purified protein A (from UniProt P38507 37-477)	7	47	–	–	–	–
protein A on the cell surface of Staphylococcus aureus (Cowan's serotype 1, ATCC 12598) (from UniProt P38507 37-477)	–	–	44	230 Hz and 250 Hz	6	39
